A short description of data set [1]: Relaxivity in aqueous solution. Format: physicochemical. As for the experimental part:
(§1) The relaxivity of the compounds of the invention was measured both in saline solution and in human serum, reconstituted from Seronorm^(R) Human (Nycomed Pharma), lyophilized human serum, and the resulting data are summarized in TABLES 1 and 2.
(§2) TABLE 1 reports the relativity values measured for some compounds of the invention at 20 MHz; the other experimental conditions used are detailed following the table itself.
(§3) TABLE 2 comprises the results obtained from tests carried out under the same experimental conditions as above and in which r1 and r2 relaxivities were measured in serum and in aqueous solution at lower fields, precisely at 5 and 10 MHz. Said data evidence the significant increase in relaxivity obtained in serum already at 5 MHz and are indicative of the potential advantageous use of the compounds of the invention in M.R.I. diagnostic imaging at low fields.

Data set [2] in a line: Relaxivity in human serum reconstituted from Seronorm Human. The format is physicochemical. The procedure:
as §1, §2, §3

The mark [3] stands for this setting: 5 MHz, same experimental conditions as Table 1.
[4] abbreviates: 10 MHz, same experimental conditions as Table 1.

Data on one substance can be found in patent US6337064B1, “Manganese chelates with high relaxivity in serum” (Dibra S.p.A., priority 1998, dated 2002).

Take “Manganese complex of [[S—(R*,R*)]-α,α′-[1,2-ethane-diyl-bis[(carboxymethyl)imino]]bis(cyclohexanepropanoic)acid salified with 1-deoxy-1-(methylamino)-D-glucitol (1:2) [Example 3]”: the “Relaxivity r1, aqueous solution” value in data set [1] (0.15 M NaCl aqueous solution, 20 MHz, 39° C., pH 7.3) is 3.52^(6) mM^−1 s^−1. The “Relaxivity r1 5 MHz, aqueous solution” value in data set [1] (setting [3]) was found to be 4.7 mM⁻¹ s⁻¹. Besides, the “Relaxivity r1 10 MHz, aqueous solution” value in data set [1] (setting [4]) was 4.3 mM⁻¹ s⁻¹. For the same substance, the “Relaxivity r1 5 MHz, Seronorm” value in data set [2] (setting [3]) was determined as 26.2 mM⁻¹ s⁻¹. In addition, the “Relaxivity r1 10 MHz, Seronorm” value in data set [2] (setting [4]) is 35.1 mM⁻¹ s⁻¹. For the same substance, the “Relaxivity r1, Seronorm Human” value in data set [2] (calculated between 0 and 1 mM, 20 MHz, 39° C.) is 43^(7) mM^−1 s^−1.
